Laboratory results from patent publication US20240018110A1, “RADIOLABELED COMPOUNDS TARGETING THE PROSTATE-SPECIFIC MEMBRANE ANTIGEN” (THE UNIVERSITY OF BRITISH COLUMBIA, priority 2020, published 2024).

Protein sequences, listed by entry. Tags and fused reporters are not part of them.
UniProt Q04609, whole entry: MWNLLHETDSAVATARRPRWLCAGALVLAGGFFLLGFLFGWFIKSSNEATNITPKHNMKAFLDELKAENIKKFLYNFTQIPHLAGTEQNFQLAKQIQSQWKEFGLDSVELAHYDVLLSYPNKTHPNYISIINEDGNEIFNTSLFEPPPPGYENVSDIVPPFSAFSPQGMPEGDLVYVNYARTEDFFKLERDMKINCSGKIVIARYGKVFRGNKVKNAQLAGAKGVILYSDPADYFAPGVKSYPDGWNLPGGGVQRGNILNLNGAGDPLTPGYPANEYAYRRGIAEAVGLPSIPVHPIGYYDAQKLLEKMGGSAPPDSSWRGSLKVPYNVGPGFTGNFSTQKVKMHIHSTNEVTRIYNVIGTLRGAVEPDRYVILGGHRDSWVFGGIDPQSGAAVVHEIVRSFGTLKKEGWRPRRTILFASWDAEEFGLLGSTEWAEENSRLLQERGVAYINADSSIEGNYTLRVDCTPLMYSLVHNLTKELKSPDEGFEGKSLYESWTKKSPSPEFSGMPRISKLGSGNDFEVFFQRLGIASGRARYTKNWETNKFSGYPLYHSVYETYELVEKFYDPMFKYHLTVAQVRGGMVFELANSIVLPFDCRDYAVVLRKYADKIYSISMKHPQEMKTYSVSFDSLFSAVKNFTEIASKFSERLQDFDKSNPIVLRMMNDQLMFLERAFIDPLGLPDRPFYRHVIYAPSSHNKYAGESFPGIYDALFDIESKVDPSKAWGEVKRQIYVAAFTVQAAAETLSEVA

Target: PSMA (Homo sapiens, UniProt Q04609)
Assay: In vitro competitive binding assay

Ki: > 1000 nM
SMILES: O=C(O)CCC[C@H](NC(=O)N[C@H](C(=O)O)C1CC1CCNC(=O)[C@H](Cc1c2ccccc2cc2ccccc12)NC(=O)[C@H]1CC[C@H](CNC(=O)CN2CCN(CC(=O)O)CCN(CC(=O)O)CCN(CC(=O)O)CC2)CC1)C(=O)O (single isomer, unassigned) [PD-5-131]
